Measurements as given in PubChem BioAssay AID1452 (National Center for Advancing Translational Sciences (NCATS), 2008).
Only a part is listed here, and it is no random draw. Activity calls are given as the source filed them. Calls come from the whole dose curve; as a rule, active = well fitted inhibition curve with a large enough effect; inconclusive = small, poorly fitted or top-dose-only effect; inactive = flat fitted curve, though single readings scatter.
% is set by controls: 0 for no effect and ±100 for the full control effect.
Note: nearly all actives have a fitted effect of over 55% in size.

By UniProt entry, the sequences of proteins in these tests, tags left out.
UniProt P18054, whole entry: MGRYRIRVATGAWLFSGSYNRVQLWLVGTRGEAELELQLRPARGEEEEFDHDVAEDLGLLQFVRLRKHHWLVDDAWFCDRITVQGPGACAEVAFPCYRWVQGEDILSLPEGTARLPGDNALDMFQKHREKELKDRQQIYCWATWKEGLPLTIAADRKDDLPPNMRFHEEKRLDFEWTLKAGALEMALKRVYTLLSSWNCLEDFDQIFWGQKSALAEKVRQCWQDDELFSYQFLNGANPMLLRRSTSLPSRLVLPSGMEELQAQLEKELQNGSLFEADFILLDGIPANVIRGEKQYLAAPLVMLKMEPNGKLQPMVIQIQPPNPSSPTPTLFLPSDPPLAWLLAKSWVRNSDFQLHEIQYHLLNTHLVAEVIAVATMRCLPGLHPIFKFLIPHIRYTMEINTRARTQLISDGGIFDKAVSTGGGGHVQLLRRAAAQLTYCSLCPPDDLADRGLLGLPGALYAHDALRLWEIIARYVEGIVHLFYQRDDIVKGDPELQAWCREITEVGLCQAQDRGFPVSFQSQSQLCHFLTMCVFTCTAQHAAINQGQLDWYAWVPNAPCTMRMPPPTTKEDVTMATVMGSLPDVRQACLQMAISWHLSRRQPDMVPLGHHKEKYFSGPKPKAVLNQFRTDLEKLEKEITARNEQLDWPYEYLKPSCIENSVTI

These molecules were tested against Polyunsaturated fatty acid lipoxygenase ALOX12 (Homo sapiens) (UniProt P18054) (assay: qHTS Assay for Inhibitors of 12-hLO (12-human lipoxygenase)). Conditions: purified 12-hLO, xylenol orange hydroperoxide absorbance; at 57.1 µM (top of the series).
Description: Assay Provider: Holman, T.R., University of California, Santa Cruz Screening Center PI: Austin, C.P. Screening Center: NIH Chemical Genomics Center [NCGC] Human lipoxygenase 12hLO is a member of the closely related lipoxygenase family of enzymes which catalyze the site-specific oxidation of arachidonic acid to various hormone precursor molecules and as such is a candidate for drug development in a variety of disease areas, such as cancer and inflammation. Inhibition of 12hLO activity was screened by utilizing arachidonic acid as a substrate. The extent of hydroperoxide product formation was measured by a secondary chromogenic reaction in which xylenol orange (XO, Sigma-Aldrich, cat. number 39,818-7) reacts with the ferric ions produced from the reaction between the hydroperoxide and ferrous ions. The Fe(III)-XO complex is characterized with red-shifted absorbance at 560 nm. A purified preparation of human 12hLO was supplied by Professor Ted Holman, University of California, Santa Cruz.
Assay Protocol: Buffer: 25 mM Hepes pH 7.0, 0.01% Triton X-100. Reagents/Controls: Buffer in columns 3 and 4 as negative control (no enzyme). […] The absorbance at 405 and 573 nm were measured using ViewLux (Perkin-Elmer) High-throughput CCD imager and absorbance protocol settings. The 573-to-405 absorbance ratio was used to compute reaction progress.
For `CN(CCCl)CCCl`, the activity change, negative = inhibition was inactive: -3.42%.
With `O=[N+]([O-])C(Cl)(Cl)Cl` the activity change, negative = inhibition was inactive: 0.755%.
